Test [1] concerns the target T1, human opioid receptor-like (ORL-1) (Homo sapiens (Human), UniProt P41146). The test can be described thus: In vitro ORL-1 receptor binding assay ([3H]-nociceptin displacement).
For test [2], the target named is T1, human opioid receptor-like (ORL-1). The test is described as follows: In vitro ORL-1 receptor [35S]GTPγS functional assay. The test is classed as biochemical. Conditions: mean ± SEM; for pEC50: read-out: GTPγS ORL-1 EC50.
In test [3] the target is kappa opioid receptor (Homo sapiens (Human), UniProt P41145). The test can be described thus: In vitro kappa-opioid receptor [35S]GTPγS functional assay. The class given is biochemical. Conditions: mean ± SEM; for pEC50: read-out: GTPγS Opioid Receptor Kappa EC50. (GTPγS is a poorly hydrolysed GTP analogue; its binding reports G protein activation.)

The record followed here is patent US8846929B2, “Substituted-quinoxaline-type piperidine compounds and the uses thereof” (priority 2007, dated 2014).

As usually defined, the pKi is the Ki on a negative log10 scale, so that one unit is a factor of ten. A higher pKi goes with a small Ki. One may read the pEC50 as −log10 of the EC50, conventionally taken in molar units.

Molecules are shown by their SMILES. pEC50, pKi: −log10 of the molar value.

In test [1], `CC(C)(C1CCCCCCC1)N1[C@@H]2CCC[C@H]1C[C@@](C)(n1c(=O)c(C(=O)O)nc3ccccc31)C2` had a pKi of 6.54.

In test [1], `CCOC(=O)[C@@H]1CN(CCNc2nc3ccccc3n([C@H]3C[C@H]4CCC[C@@H](C3)N4C34CC5CC(CC3C5)C4)c2=O)C[C@H]1C(=O)OCC` gave a pKi of 6.31. This pKi lies 0.23 log units lower than the previous one.

In turn, `CCOC(=O)c1nc2ccccc2n([C@H]2C[C@H]3CC[C@@H](C2)N3C2CC(C)(C)CC(C)(C)C2)c1=O` showed a negative logarithm of the Ki (pKi) in test [1] of 5.89.

Compound `O=C(O)C1(N2CCC(n3c(=O)c(N4CC5CNCC5C4)nc4ccccc43)CC2)CCCCCCC1` (stereo not shown) had a pKi in test [1] of under 4.00.

In the case of `CC(CC(=O)O)Nc1nc2ccccc2n(C2CCN(C3CCCCCCC3)CC2)c1=O` (stereo not shown), the pKi in test [1] was 6.08.

Compound `CCC(C#Cc1ccccc1)N1[C@@H]2CC[C@H]1C[C@@H](n1c(=O)c(C(=O)O)nc3ccccc31)C2` (stereo partly shown) had a pKi in test [1] of under 4.70.

`CCC(C#CC(C)(C)C)N1[C@@H]2CC[C@H]1C[C@@H](n1c(=O)c(C(=O)O)nc3ccccc31)C2` (stereo partly shown): the pKi in test [1] is 6.69.

As to `O=C(O)c1cc(CNc2nc3ccccc3n([C@H]3C[C@H]4CC[C@@H](C3)N4C3CCCCCCC3)c2=O)ccc1O`, the “GTPγS ORL-1 Emax” value in test [2] was determined as 19 ± 1.5%. This compound also gave a pKi in test [1] of 7.18.

In turn, `CC1(C)CCC(N2[C@@H]3CCC[C@H]2C[C@@H](n2c(=O)c(C(=O)O)nc4ccccc42)C3)CC1` had a pKi in test [1] of 6.08.

In turn, `CC1(C)CC(N2[C@@H]3CC[C@H]2C[C@@H](n2c(=O)c(C(=O)O)nc4ccccc42)C3)CC(C)(C)C1` had a pKi in test [1] of 6.30. Compared with the last compound, the pKi is 0.22 log units higher.

With `O=C(O)c1nc2ccccc2n([C@@H]2C[C@H]3CC[C@@H](C2)N3C2CCCCCCC2)c1=O`, the pKi in test [1] is 6.52. Against the preceding compound, the pKi is 0.22 log units higher.

In test [1], `O=C(O)c1nc2ccccc2n([C@H]2C[C@H]3CC[C@@H](C2)N3C2C=CCCCC2)c1=O` (stereo partly shown) had a pKi of 6.21.

In the case of `CC1(C)[C@H]2CC[C@@H](CN3[C@@H]4CC[C@H]3C[C@@H](n3c(=O)c(C(=O)O)nc5ccccc53)C4)[C@@H]1C2`, in test [1], the pKi was 6.40.

`CC(C)(C)C#CCN1[C@@H]2CC[C@H]1C[C@@H](n1c(=O)c(C(=O)O)nc3ccccc31)C2` showed a pKi in test [1] of 5.55.

As for `CCOC(=O)c1nc2ccccc2n([C@H]2C[C@H]3CCC[C@@H](C2)N3C2CCC(C)(C)CC2)c1=O`, the pKi in test [1] was 6.43.

`O=C(O)C1CCN(C(=O)c2nc3ccccc3n([C@H]3C[C@H]4CC[C@@H](C3)N4C3CCCCCCC3)c2=O)CC1` gave a negative-log Ki (pKi) in test [1] of 6.20.

For `O=c1c(NC2CCNCC2)nc2ccccc2n1C1CCN(C2CCCCCCC2)CC1`, in test [2], the “GTPγS ORL-1 Emax” value worked out at 76.3 ± 3.9% and the pEC50 was 6.47. Besides, in test [3], the “GTPγS Opioid Receptor Kappa Emax” value stood at 39.3 ± 2.0% and the pEC50 is 5.85.

As to `O=c1c(N2CCc3ccccc32)nc2ccccc2n1C1CCN(C2CCCCCCC2)CC1`, in test [2], the “GTPγS ORL-1 Emax” value came out at 119.7 ± 2.7% and the pEC50 is 7.15. Also, in test [3], the “GTPγS Opioid Receptor Kappa Emax” value turned out to be 7 ± 1.2% and the pEC50 is 5.06.

On to `CCOC(=O)c1nc2ccccc2n([C@H]2C[C@H]3CCC[C@@H](C2)N3C(C)CC(C)C)c1=O` (stereo partly shown), for which the figures for the pEC50 in test [2] and in test [3] were 7.07 and 5.83, respectively.

With `CC(=O)N[C@H]1CCN(c2nc3ccccc3n(C3CCN(C4CCCCCCC4)CC3)c2=O)C1`, the “GTPγS ORL-1 Emax” value in test [2] was determined as 106.5 ± 3.8%. Further, in test [3], the “GTPγS Opioid Receptor Kappa Emax” value is listed as 12 ± 0.6% and the pEC50 is 5.30.

Take `CCOC(=O)C1CN(CCNc2nc3ccccc3n([C@H]3C[C@H]4CC[C@@H](C3)N4C3CCCCCCC3)c2=O)C[C@H]1C(=O)OCC` (stereo partly shown): the pEC50 in test [2] was 6.49; in test [3] it was 6.26.

As for `N#Cc1nc2ccccc2n(C2CCN(C3CCCCCCC3)CC2)c1=O`, the “GTPγS ORL-1 Emax” value in test [2] is 110.7 ± 2.9%. Further, in test [3], the “GTPγS Opioid Receptor Kappa Emax” value is on record as 16 ± 0.6% and the pEC50 is 5.64.

Consider `COC(=O)C(CO)Nc1nc2ccccc2n(C2CCN(C3CCCCCCC3)CC2)c1=O` (stereo not shown), for which the “GTPγS ORL-1 Emax” value in test [2] came out at 112.7 ± 2.3%. For the same compound, the “GTPγS Opioid Receptor Kappa Emax” value in test [3] is given as 30 ± 1.5%.
